Assay results: paper PMC12801292
pIC50: −log10 of the molar value.

Sequences of proteins named here, by UniProt entry; tags and fusion partners are left off.
UniProt Q9NYY3, whole entry: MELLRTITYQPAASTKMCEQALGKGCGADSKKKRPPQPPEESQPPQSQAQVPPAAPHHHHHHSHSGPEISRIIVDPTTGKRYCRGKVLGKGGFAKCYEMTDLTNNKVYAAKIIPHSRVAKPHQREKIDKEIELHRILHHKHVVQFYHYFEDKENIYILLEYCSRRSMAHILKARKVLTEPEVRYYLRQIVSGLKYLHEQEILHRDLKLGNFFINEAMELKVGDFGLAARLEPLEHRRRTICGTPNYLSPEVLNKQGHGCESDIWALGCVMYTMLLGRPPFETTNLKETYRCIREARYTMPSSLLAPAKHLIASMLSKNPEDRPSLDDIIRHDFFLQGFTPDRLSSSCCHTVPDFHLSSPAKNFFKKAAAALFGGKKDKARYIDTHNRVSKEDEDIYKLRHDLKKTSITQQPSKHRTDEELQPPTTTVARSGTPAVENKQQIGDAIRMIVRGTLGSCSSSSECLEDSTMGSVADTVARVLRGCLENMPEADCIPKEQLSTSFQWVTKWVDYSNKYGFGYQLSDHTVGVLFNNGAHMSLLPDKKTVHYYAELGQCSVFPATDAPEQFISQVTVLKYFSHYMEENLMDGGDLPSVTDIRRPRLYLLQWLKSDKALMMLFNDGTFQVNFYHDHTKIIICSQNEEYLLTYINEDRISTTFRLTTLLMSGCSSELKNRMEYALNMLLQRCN

Molecular target: PLK2 (Homo sapiens, UniProt Q9NYY3)
Experiment: LanthaScreen Eu kinase binding assay (FRET)
Conditions: duplicate

Row | SMILES | pIC50
1 | COc1ccc(-c2n[nH]c3c2C(c2ccccc2O)C(C#N)=C(N)O3)cc1 (centres unmarked) | 6.23
2 | N#CC1=C(N)Oc2[nH]nc(-c3ccncc3)c2C1c1ccc(O)c(O)c1 (centres unmarked) | 6.11
